# Measured values from PubChem BioAssay AID2107 (National Center for Advancing Translational Sciences (NCATS), 2009).
# Chains of the proteins cited; added tags and fusions are not shown. Lines headed by an entry give the natural chain unless they say otherwise; changes in a name come on top.
# UniProt P06280: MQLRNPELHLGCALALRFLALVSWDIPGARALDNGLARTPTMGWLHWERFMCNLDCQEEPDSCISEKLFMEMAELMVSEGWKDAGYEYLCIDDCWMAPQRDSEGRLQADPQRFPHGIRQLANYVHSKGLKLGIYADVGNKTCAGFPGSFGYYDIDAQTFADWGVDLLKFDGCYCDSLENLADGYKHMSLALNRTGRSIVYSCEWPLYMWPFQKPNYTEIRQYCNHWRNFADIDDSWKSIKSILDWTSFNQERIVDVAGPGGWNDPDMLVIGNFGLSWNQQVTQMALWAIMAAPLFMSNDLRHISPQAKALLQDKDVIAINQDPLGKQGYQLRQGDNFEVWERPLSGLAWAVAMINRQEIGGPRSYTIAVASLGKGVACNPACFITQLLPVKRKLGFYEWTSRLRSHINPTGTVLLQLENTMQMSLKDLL
# Several values for one entry are separate records, joined by “and”; a condition that tells them apart may be missing. Identical values can stand only once. This is a selection; strong and weak results do not stand in their true shares. Activity calls are given as the source filed them. The call rests on the fitted dose curve; in most records, active means well fitted inhibition curve with a large enough effect; inconclusive means small, poorly fitted or top-dose-only effect, or effect the other way; inactive means flat fitted curve, though single readings scatter.
# Molecular target: Alpha-galactosidase A (Homo sapiens) (UniProt P06280)
# Test: qHTS Assay for Inhibitors and Activators of Human alpha-Galactosidase From Spleen Homogenate;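 further: 0% = enzyme with vehicle and -100% = no enzyme basal signal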
# Details: 4MU-alpha-Gal fluorescence, 40 min
# Text: NIH Chemical Genomics Center [NCGC] NIH Molecular Libraries Probe Production Centers Network [MLPCN] MLPCN Grant: R03 MH084842-01 Assay Submitter (PI): Wei Zheng NCGC Assay Overview: Alpha-galactosidase is a homodimeric glycoprotein that hydrolyzes the terminal alpha-galactosyl moieties from glycolipids and glycoproteins. Deficiency of this enzyme results in Fabry Disease with progressive accumulation of globotriaosylceramide and other glycosphingolipids in vascular endothelial cells that causes renal failure, myocardial infarction and stroke, and premature death in patients. It has been reported that the improper folding and trafficking of alpha-galactosidase resulting from genetic mutations may account for a significant number of Fabry patients. […] We optimized this alpha-galactosidase assay in 1536-well plate format for identification of novel small molecule inhibitors or activators with structures other than the sugar analogs in order to develop new pharmacological chaperones. In particular, this assay is directed towards discovering compounds active in more natural setting, tissue homogenate, that may have been missed by screens of the purified enzyme under more stringent conditions.
# NCGC Assay Protocol Summary: This is a fluorogenic enzyme assay with 4-methylumbelliferyl-alpha-D-galactopyranoside as the substrate and human spleen homogenate containing alpha-galactosidase as the enzyme preparation. Upon hydrolysis of this fluorogenic substrate, the resulting product, 4-methylumbelliferone (which excites at 365 nm and emits at 440 nm) can be detected by a fluorescence plate reader. Data were normalized to the controls for basal activity (without enzyme) and 100% activity (with enzyme). The AC50 values were determined from concentration-response data modeled with the standard Hill equation. Assay buffer: 50 mM citric acid (titrated with potassium phosphate to pH 5.0), 0.01% Tween-20 (pH 5.0 is an optimal condition for this enzyme assay) 1536-well assay protocol for the alpha-galactosidase from human spleen homogenate: (1) Add 2 ul/well spleen homogenate (1 ug) (2) Add 23 nL compounds in DMSO solution. The final titration was 0.5 nM to 58 uM. (3) Add 2 ul of substrate (1 mM final) (4) Incubate at 37C for 40 min (5) Add 2 ul stop solution (1M NaOH and 1M Glycine mixture, pH 10) (6) Detect the assay plate in a ViewLux plate reader (PerkinElmer) with Ex=365 nm and Em=440nm. Keywords: Alpha-galactosidase, Fabry Disease, pharmacological chaperone, chaperone therapy, high throughput screening, alpha- galactosidase inhibitor, MLSMR, MLSCN, NIH Roadmap, qHTS and NCGC
# [1] = at 80 µM (top of the series) unless noted
smiles,measurement,setting,value
c1nnnn1CCn1cnnn1,"activity change, negative = inhibition",[1],inactive: 0.551%
CCC(C)(OOC(C)(C)C)OOC(C)(C)C,"activity change, negative = inhibition",[1],inactive: 5.59%
CC(C)C(=O)NC(Sc1ccccc1)C(Cl)(Cl)Cl (stereo not given),"activity change, negative = inhibition",[1],inactive: -4.35%
O=P(Nc1nccs1)(c1ccccc1)c1ccccc1,"activity change, negative = inhibition",[1],inactive: -0.425%
CC(C)(C)C(=O)NC(Sc1ccccc1)C(Cl)(Cl)Cl (stereo not given),"activity change, negative = inhibition",[1],inactive: 3.05%
CCOc1ccc(C2=NCC(CBr)S2)cc1 (stereo not given),"activity change, negative = inhibition",[1],inactive: -0.929%
O=P1(Nc2nc3ccc(Cl)cc3s2)COc2ccccc2O1 (stereo not given),"activity change, negative = inhibition",[1],inactive: 12.1%
CC(=O)Nc1ccc(Oc2c([N+](=O)[O-])cc([N+](=O)[O-])cc2[N+](=O)[O-])cc1,"activity change, negative = inhibition",[1],inactive: 3.24%
CC(=O)Nc1ccc([As](=O)(O)O)c(O)c1,"activity change, negative = inhibition",[1],inactive: 4.65%
C[C@@H]1C=CCP(=O)(Oc2ccccc2)O1 (stereo not given in full),"activity change, negative = inhibition",[1],inactive: 2.98%
C[C@H]1OP(=O)(Oc2ccccc2)C[C@@H]2O[C@@H]21 (stereo not given in full),"activity change, negative = inhibition",[1],inactive: 0.949%
CCOC(=O)NC(Sc1ccccc1)C(Cl)(Cl)Cl (stereo not given),"activity change, negative = inhibition",[1],inactive: -2.78%
Cc1ccc(NP(=O)(Oc2cccc(C)c2)Oc2cccc(C)c2)nc1,"activity change, negative = inhibition",[1],inactive: 4.06%
c1ccc(-c2nn[nH]n2)c(-c2nn[nH]n2)c1,"activity change, negative = inhibition",[1],inactive: -27.6%
CCNC(=S)/N=C(\N)N[N+](=O)[O-],"activity change, negative = inhibition",[1],inactive: -1.66%
O=C(NC1CCS(=O)(=O)C1)NP(=S)(Oc1ccccc1)Oc1ccccc1 (stereo not given),"activity change, negative = inhibition",[1],inactive: 4.45%
CN(C)C(=O)Oc1noc2ccccc12,"activity change, negative = inhibition",[1],inactive: 10.5%
O=c1c2cc([N+](=O)[O-])ccc2[nH]c2c([N+](=O)[O-])cc([N+](=O)[O-])cc12,"activity change, negative = inhibition",[1],inactive: -4.57%
Cc1ccccc1OP(=O)(Nc1ccccn1)Oc1ccccc1C,"activity change, negative = inhibition",[1],inactive: -3.86%
CCC(=O)N1C2C3N(C(=O)CC)C1C1N(C(=O)CC)C(C(N1C(=O)CC)N3C(=O)CC)N2C(=O)CC,"activity change, negative = inhibition",[1],inactive: 2.06%
CN(C(=O)Cc1ccc(Cl)c(Cl)c1)[C@@H]1CCCC[C@@H]1N1CCCC1,"activity change, negative = inhibition",[1],inactive: -1.53%
Cc1ccc(OP(=O)(Nc2ccccn2)Oc2ccc(C)cc2)cc1,"activity change, negative = inhibition",[1],inactive: -10.5%
CC(=O)NC(SC(=S)N(CC(C)C)CC(C)C)C(Cl)(Cl)Cl (stereo not given),"activity change, negative = inhibition",[1],inactive: -14.8%
COC(=O)c1cc2c(s1)N=C(c1ccccc1)N(C)P2(=O)N1CCOCC1 (stereo not given),"activity change, negative = inhibition",[1],inactive: -0.0736%
Nc1ccccc1[As](=O)(O)c1ccccc1,"activity change, negative = inhibition",[1],inactive: 1.7%
O=C(O)COc1ccc([As](=O)(O)O)cc1[N+](=O)[O-],"activity change, negative = inhibition",[1],inactive: -5.89%
O=P(Nc1nccs1)(c1ccccc1)c1nc2ccccc2s1 (stereo not given),"activity change, negative = inhibition",[1],inactive: 15.5%
O=P(Nc1nccs1)(Oc1ccccc1)Oc1ccccc1,"activity change, negative = inhibition",[1],inactive: 6.67%
CCOP1(=S)c2c(C)nn(CCC#N)c2N=C(c2ccccc2F)N1C (stereo not given),"activity change, negative = inhibition",[1],inactive: -1.36%
CS(=O)(=O)c1cc([N+](=O)[O-])c2no[n+]([O-])c2c1,"activity change, negative = inhibition",[1],inactive: -3.14%
CCOP1(=S)c2c(C)nn(CCC#N)c2N=C(c2ccc(F)cc2)N1C (stereo not given),"activity change, negative = inhibition",[1],inactive: 3%
CN(C(=O)Cc1ccccc1)[C@@H]1CC[C@]2(CCCO2)C[C@H]1N1CCCC1,"activity change, negative = inhibition",[1],inactive: -18.4% and inactive: 26.6%
O=[N+]([O-])c1ccc2c(c1)nnn2O,"activity change, negative = inhibition",[1],inactive: 7.19%
O=[N+]([O-])CC(O)c1ccc([N+](=O)[O-])cc1 (stereo not given),"activity change, negative = inhibition",[1],inactive: -6.31%
NC(=O)Nc1ccc([As](=O)(O)O)cc1,"activity change, negative = inhibition",at 29.1 µM (top of the series),inactive: 1.72%
same,"activity change, negative = inhibition",at 80 µM (top of the series),inactive: 4.11% and inactive: 10.7%
O=[As](O)(c1cccc(O)c1)c1cccc(O)c1,"activity change, negative = inhibition",[1],inactive: -1.3%
Cc1cccc(OCC(=O)OC2CN3CCC2CC3)c1 (stereo not given),"activity change, negative = inhibition",[1],inactive: 9.07%
CN(C(=O)Cc1ccc(Cl)c(Cl)c1)[C@@H]1CC[C@]2(CCCO2)C[C@H]1N1CCCC1,"activity change, negative = inhibition",[1],inactive: 7.83% and inactive: 15.5%
COc1cc(C(=O)NCC2(N3CCOCC3)CCCCC2)cc(Cl)c1OC(C)C,"activity change, negative = inhibition",[1],inactive: -2.28%
O=[As](O)(O)c1cccnc1,"activity change, negative = inhibition",[1],inactive: -8.45%
CCOP(=O)(Nc1cccc2ccccc12)OCC,"activity change, negative = inhibition",[1],inactive: 5.63%
COc1cc(C2NCCC3(OCCO3)C2(C)C)cc(OC)c1OC (stereo not given),"activity change, negative = inhibition",[1],inactive: 3.79%
Nc1cccc2c([As](=O)(O)O)cccc12,"activity change, negative = inhibition",[1],inactive: 4.49%
Cc1ccc(NCCc2c([N+](=O)[O-])cc([N+](=O)[O-])cc2[N+](=O)[O-])cc1,"activity change, negative = inhibition",[1],inactive: 5.39%
CCCOP(=S)(Nc1nc(N)cc(=O)[nH]1)OCCC,"activity change, negative = inhibition",[1],inactive: -4.68%
CC(C)(C)C(=O)NC(Sc1ncccn1)C(Cl)(Cl)Cl (stereo not given),"activity change, negative = inhibition",[1],inactive: -4.4%
Clc1n[nH]nc1-c1nn[nH][15n]1,"activity change, negative = inhibition",[1],inactive: -18.7%
O=P1(Nc2ccccn2)COc2ccccc2OC1,"activity change, negative = inhibition",[1],inactive: 4.76%
CN(CCCl)Cc1cc(Cl)c(NC2=NCCN2)c(Cl)c1,"activity change, negative = inhibition",[1],inactive: -6.82% and inactive: -1.02%
